The text below walks through data of patent US20220168472A1, “ENZYME-DEGRADABLE HYDROGEL FOR DELIVERY OF A PAYLOAD” (priority 2019, published 2022).

The test system of this series is MMP-8. Nature of the series: Controlled release of FITC-dextran via enzymatic degradation of GelMA/GelMA+ disks by MMP-8. It is filed as physicochemical. The settings on record: high methacrylation GelMA patches, PBS or 1 μg/ml MMP-8. The protocol: IRGACURE 2959 Photo Initiator (Sigma-Aldrich) was dissolved in PBS at 60° C. for one hour to make a 0.5% solution. Lyophilized GelMA powder was dissolved in the solution at 60° C. for 2 days to ensure the powder was completely solubilized. FITC-dextran (4 kDa and 70 kDa; Sigma-Aldrich) was added to the GelMA solution to achieve a 5 mg/ml FITC-dextran concentration. The solution was vortexed to ensure homogeneity and centrifuged at 5000 RPM for 5 minutes to remove bubbles. To reverse any physical gelling that may have occurred during the centrifugation step the solution was then heated to 60° C. in an oven. […]
To characterize their enzymatic degradation and resulting release profile, 6 mm diameter GelMA disks were placed in a 24-well plate and incubated at 37° C. […] At the previously defined time points, the collected enzyme solutions were placed in a 48-well plate and stored in −80° C. until ready for quantification. 100 μl of sample solution collected at each time point was transferred to a black 96-well plate and fluorescence was quantified using a plate reader, at a fluorescence excitation of 490 nm and emission of 520 nm. The accumulative release was calculated in Excel using a FITC-dextran calibration curve and graphed using GraphPad Prism 6. […]

Bounds are passed on as bounds.

Consider “Fluorescein isothiocyanate (FITC)-dextran [4 kDa FITC-dextran]”, for which the “time to complete elution from the hydrogel” value was ≤ 10 h.

Consider “Fluorescein isothiocyanate (FITC)-dextran [70 kDa FITC-dextran]”, for which the “release profile from the hydrogel” value is “concentration and crosslinking-dependent release profile”.
